Membrane permeability of cyclic peptides

Data: CycPeptMPDB; original report Townsend et al. 2020, doi:10.26434/chemrxiv.13335941.v1.

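Conditions beyond the assay type are not listed; see the original paper. Other peptides of the study may be missing here. Peptides that the database sets to -10, its floor, are left out.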

PAMPA is the parallel artificial membrane permeability assay, which has no cells and reads passive diffusion. Permeability is in 10^-6 cm/s, converted from the database's log10 values; higher is more permeable.

* CC(C)C[C@@H]1NC(=O)[C@@H](CC(C)C)NC(=O)C[C@H](Cc2ccccc2)NC(=O)[C@@H]2CCCN2C(=O)[C@H](Cc2ccccc2)NC(=O)[C@@H](CC(C)C)NC(=O)[C@@H]2CCCN2C1=O: PAMPA 1.5 × 10^-6 cm/s
* CC(C)C[C@@H]1NC(=O)[C@@H](C)N(C)C(=O)[C@H](Cc2ccccc2)NC(=O)[C@@H](CC(C)C)N(C)C(=O)[C@@H]2CCCN2C(=O)[C@H](CC(C)C)NC1=O: PAMPA 4.3 × 10^-6 cm/s
* CCCN1CC(=O)N[C@H](CC(C)C)C(=O)N[C@H](CC(C)C)C(=O)N2CCC[C@H]2C(=O)N(Cc2ccccc2)CC(=O)N[C@@H](Cc2ccccc2)C1=O: PAMPA 1.3 × 10^-6 cm/s
* CC(C)C[C@@H]1NC(=O)[C@@H]2CCCN2C(=O)CN(Cc2ccccc2)C(=O)[C@@H](CC(C)C)NC(=O)[C@@H](C)N(C)C(=O)[C@H]2CCCN2C(=O)[C@H](Cc2ccccc2)NC1=O: PAMPA 0.2 × 10^-6 cm/s
* CC(C)C[C@@H]1C(=O)N[C@@H](Cc2ccccc2)C(=O)N2CCC[C@@H]2C(=O)N(C)[C@H](C)C(=O)N[C@H](CC(C)C)C(=O)N[C@H](CC(C)C)C(=O)N2CCC[C@@H]2C(=O)N1C: PAMPA 0.71 × 10^-6 cm/s
* CC(C)C[C@@H]1NC(=O)[C@@H]2CCCN2C(=O)[C@@H](CC(C)C)N(C)C(=O)[C@H](CC(C)C)NC(=O)[C@@H](C)N(C)C(=O)[C@H](Cc2ccccc2)NC1=O: PAMPA 9.5 × 10^-6 cm/s
* CC(C)C[C@@H]1NC(=O)[C@H]2CCCN2C(=O)C[C@H](Cc2ccccc2)NC(=O)[C@@H](CC(C)C)N(C)C(=O)[C@H](C)NC(=O)[C@@H]2CCCN2C(=O)[C@H](Cc2ccccc2)NC1=O: PAMPA 0.83 × 10^-6 cm/s
* CC(C)C[C@@H]1C(=O)N[C@H](CC(C)C)C(=O)N2CCC[C@H]2C(=O)N(C)[C@@H](CC(C)C)C(=O)N[C@@H](Cc2ccccc2)C(=O)N2CCC[C@H]2C(=O)N[C@@H](Cc2ccccc2)CC(=O)N1C: PAMPA 3 × 10^-6 cm/s
* CC(C)C[C@H]1NC(=O)[C@H](C)NC(=O)[C@H](Cc2ccccc2)NC(=O)[C@H](CC(C)C)N(C)C(=O)[C@@H]2CCCN2C(=O)CN(Cc2ccccc2)C1=O: PAMPA 1.7 × 10^-6 cm/s
* CC(C)C[C@@H]1NC(=O)[C@H](C)N(C)C(=O)[C@H](Cc2ccccc2)NC(=O)[C@H](CC(C)C)NC(=O)[C@@H]2CCCN2C(=O)C[C@H](Cc2ccccc2)NC1=O: PAMPA 0.83 × 10^-6 cm/s
* CCCN1CC(=O)N(C)[C@H](CC(C)C)C(=O)N[C@@H](CC(C)C)C(=O)N2CCC[C@H]2C(=O)N(C)[C@@H](CC(C)C)C(=O)N[C@@H](Cc2ccccc2)C(=O)N2CCC[C@H]2C1=O: PAMPA 7.2 × 10^-6 cm/s
* CCCN1CC(=O)N[C@H](CC(C)C)C(=O)N[C@@H](CC(C)C)C(=O)N2CCC[C@H]2C(=O)N(Cc2ccccc2)CC(=O)N[C@@H](Cc2ccccc2)C(=O)N2CCC[C@@H]2C1=O: PAMPA 1.6 × 10^-6 cm/s
* CCCN1CC(=O)N[C@@H](CC(C)C)C(=O)N[C@@H](Cc2ccccc2)CC(=O)N2CCC[C@@H]2C(=O)N(C)[C@@H](CC(C)C)C(=O)N[C@@H](Cc2ccccc2)C(=O)N2CCC[C@H]2C1=O: PAMPA 2 × 10^-6 cm/s
* CC(C)C[C@H]1NC(=O)[C@H](C)N(C)C(=O)[C@@H]2CCCN2C(=O)[C@H](Cc2ccccc2)NC(=O)[C@H](CC(C)C)N(C)C(=O)[C@H]2CCCN2C(=O)[C@H](CC(C)C)N(C)C1=O: PAMPA 3.7 × 10^-6 cm/s
* CC(C)C[C@@H]1C(=O)N2CCC[C@H]2C(=O)N(Cc2ccccc2)CC(=O)N[C@@H](Cc2ccccc2)C(=O)N2CCC[C@@H]2C(=O)N[C@H](C)C(=O)N(C)[C@@H](CC(C)C)C(=O)N1C: PAMPA 1.2 × 10^-6 cm/s
* CCCN1CC(=O)N[C@@H](CC(C)C)C(=O)N(C)[C@@H](CC(C)C)C(=O)N2CCC[C@@H]2C(=O)N(C)[C@@H](CC(C)C)C(=O)N[C@@H](Cc2ccccc2)C(=O)N2CCC[C@@H]2C1=O: PAMPA 11 × 10^-6 cm/s
* CC(C)C[C@@H]1C(=O)N(C)[C@H](CC(C)C)C(=O)N2CCC[C@H]2C(=O)N(Cc2ccccc2)CC(=O)N[C@@H](Cc2ccccc2)C(=O)N[C@@H](C)C(=O)N1C: PAMPA 4.5 × 10^-6 cm/s
* CC(C)C[C@H]1C(=O)N(Cc2ccccc2)CC(=O)N2CCC[C@H]2C(=O)N(Cc2ccccc2)CC(=O)N[C@@H](Cc2ccccc2)C(=O)N(C)[C@@H](C)C(=O)N1C: PAMPA 7.2 × 10^-6 cm/s

The 2 lowest values of PAMPA among the entries above:

* CC(C)C[C@@H]1NC(=O)[C@@H]2CCCN2C(=O)CN(Cc2ccccc2)C(=O)[C@@H](CC(C)C)NC(=O)[C@@H](C)N(C)C(=O)[C@H]2CCCN2C(=O)[C@H](Cc2ccccc2)NC1=O: PAMPA 0.2 × 10^-6 cm/s
* CC(C)C[C@@H]1C(=O)N[C@@H](Cc2ccccc2)C(=O)N2CCC[C@@H]2C(=O)N(C)[C@H](C)C(=O)N[C@H](CC(C)C)C(=O)N[C@H](CC(C)C)C(=O)N2CCC[C@@H]2C(=O)N1C: PAMPA 0.71 × 10^-6 cm/s